Laboratory results reported in paper PMC9683570.
Where a name gives a salt, the structure may show the parent alone.

Protein sequences, listed by entry. Tags and fused reporters are not part of them. Lines headed by an entry give the natural chain unless they say otherwise; changes in a name come on top.
UniProt Q13936, whole entry: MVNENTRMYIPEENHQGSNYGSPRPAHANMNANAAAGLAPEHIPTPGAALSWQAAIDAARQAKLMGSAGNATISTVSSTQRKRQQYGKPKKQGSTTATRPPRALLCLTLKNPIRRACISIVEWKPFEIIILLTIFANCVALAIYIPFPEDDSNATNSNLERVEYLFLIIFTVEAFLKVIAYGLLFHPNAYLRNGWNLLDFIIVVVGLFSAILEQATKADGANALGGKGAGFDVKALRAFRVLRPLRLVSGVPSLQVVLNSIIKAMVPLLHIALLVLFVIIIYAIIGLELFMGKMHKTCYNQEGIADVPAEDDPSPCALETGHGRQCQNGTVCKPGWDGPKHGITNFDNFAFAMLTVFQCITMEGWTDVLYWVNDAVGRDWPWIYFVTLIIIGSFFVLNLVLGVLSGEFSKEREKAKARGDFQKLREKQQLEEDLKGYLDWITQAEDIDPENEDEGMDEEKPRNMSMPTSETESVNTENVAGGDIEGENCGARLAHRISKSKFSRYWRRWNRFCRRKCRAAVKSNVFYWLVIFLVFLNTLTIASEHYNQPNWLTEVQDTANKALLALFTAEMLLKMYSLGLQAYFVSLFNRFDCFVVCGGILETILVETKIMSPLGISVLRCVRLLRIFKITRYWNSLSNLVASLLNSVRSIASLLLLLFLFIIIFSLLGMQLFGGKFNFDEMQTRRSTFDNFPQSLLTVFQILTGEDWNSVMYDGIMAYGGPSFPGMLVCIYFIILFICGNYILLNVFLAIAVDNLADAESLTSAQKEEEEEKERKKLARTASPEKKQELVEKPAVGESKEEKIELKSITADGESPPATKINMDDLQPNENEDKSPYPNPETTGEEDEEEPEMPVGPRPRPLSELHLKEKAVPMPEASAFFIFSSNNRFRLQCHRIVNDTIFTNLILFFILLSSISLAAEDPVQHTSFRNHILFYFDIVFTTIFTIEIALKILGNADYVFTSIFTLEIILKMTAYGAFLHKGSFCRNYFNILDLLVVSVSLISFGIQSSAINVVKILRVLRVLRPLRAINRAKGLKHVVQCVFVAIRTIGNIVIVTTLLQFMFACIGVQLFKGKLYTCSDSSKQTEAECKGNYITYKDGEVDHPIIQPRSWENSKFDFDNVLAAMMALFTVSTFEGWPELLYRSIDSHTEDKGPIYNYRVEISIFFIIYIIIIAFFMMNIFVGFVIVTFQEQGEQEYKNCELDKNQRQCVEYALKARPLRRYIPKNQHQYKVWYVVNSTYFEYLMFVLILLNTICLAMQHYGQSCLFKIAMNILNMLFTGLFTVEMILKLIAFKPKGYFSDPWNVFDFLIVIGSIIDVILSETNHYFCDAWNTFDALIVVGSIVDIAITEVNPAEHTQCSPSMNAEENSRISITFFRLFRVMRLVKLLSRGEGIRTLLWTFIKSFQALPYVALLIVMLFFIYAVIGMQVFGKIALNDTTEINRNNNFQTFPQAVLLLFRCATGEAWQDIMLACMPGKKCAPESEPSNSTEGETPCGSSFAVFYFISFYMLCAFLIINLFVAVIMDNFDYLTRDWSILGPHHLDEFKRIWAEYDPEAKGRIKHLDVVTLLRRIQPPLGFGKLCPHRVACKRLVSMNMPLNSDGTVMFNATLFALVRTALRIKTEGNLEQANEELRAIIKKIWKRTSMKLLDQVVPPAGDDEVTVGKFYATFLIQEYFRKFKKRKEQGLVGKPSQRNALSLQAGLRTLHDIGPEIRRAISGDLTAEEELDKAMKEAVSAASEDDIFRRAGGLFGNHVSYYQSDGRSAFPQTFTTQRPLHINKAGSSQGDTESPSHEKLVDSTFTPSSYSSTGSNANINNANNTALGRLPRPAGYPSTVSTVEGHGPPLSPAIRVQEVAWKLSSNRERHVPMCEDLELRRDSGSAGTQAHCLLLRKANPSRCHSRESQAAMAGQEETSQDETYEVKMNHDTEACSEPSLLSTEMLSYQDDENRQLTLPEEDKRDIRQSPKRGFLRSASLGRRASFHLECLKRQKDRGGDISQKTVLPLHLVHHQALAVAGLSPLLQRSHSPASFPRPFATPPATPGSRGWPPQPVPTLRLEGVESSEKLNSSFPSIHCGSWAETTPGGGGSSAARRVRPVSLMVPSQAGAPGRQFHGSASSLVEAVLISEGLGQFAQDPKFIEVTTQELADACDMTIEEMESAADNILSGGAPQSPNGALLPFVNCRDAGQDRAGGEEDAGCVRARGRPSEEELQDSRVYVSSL

How the values were obtained:
[1] = target: T1, CaV1.2 channels (hCav1.2α, β2, and α2δ1 subunits) (Homo sapiens, UniProt Q13936); assay: cell-based
[2] = target: T1, CaV1.2 channels (hCav1.2α, β2, and α2δ1 subunits)

Cc1ccc(O)c([C@H](CCN(C(C)C)C(C)C)c2ccccc2)c1 [Tolterodine, tolterodine L-tartrate]
IC50 ([1]; IC50 for ICa-ramp): 0.3 ± 0.1 µM
IC50 ([1]; IC50 for ICa-step): 2.6 ± 1.5 µM

C=CCN1CC[C@]23c4c5ccc(O)c4O[C@H]2C(=O)CC[C@@]3(O)[C@H]1C5 [Naloxone, Naloxone hydrochloride]
nH (Hill coefficient) for IBa-step [2]: 0.2
IC50 ([1]; IC50 for IBa-ramp): 87.1 ± 44.4 µM
IC50 ([1]; IC50 for IBa-step): 965 ± 1630 µM
IC50 ([1]; IC50 for ICa-ramp): 438 ± 317 µM
IC50 ([1]; IC50 for ICa-step): 751 ± 630 µM
